Ab-95 light chain CDR variants: yeast mating affinities

Data: MIT Lincoln Laboratory AlphaSeq set, Engelhart et al. 2022, doi:10.1038/s41597-022-01779-4, as distributed in FLAb.

Target peptide (SARS-CoV-2 spike, HR2 region): PDVDLGDISGINAS

The variants keep the heavy chain, the linker and the frameworks of Ab-95 (scFv order VH, three GGGGS repeats, VL).
VH: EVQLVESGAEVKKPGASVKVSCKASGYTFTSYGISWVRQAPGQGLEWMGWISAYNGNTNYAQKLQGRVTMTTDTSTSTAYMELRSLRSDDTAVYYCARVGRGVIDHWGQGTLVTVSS
VL: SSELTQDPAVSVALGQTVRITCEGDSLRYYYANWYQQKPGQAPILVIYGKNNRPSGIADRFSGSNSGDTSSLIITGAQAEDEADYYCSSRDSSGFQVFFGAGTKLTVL

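The starting antibody came from a phage panning campaign against this peptide. AAYL52 was designed without a model: most single CDR substitutions and a random sample of double and triple ones. The assay is AlphaSeq: two haploid yeast populations carry antibody and antigen on their surface. After mating in shaken culture at 30 °C for 16 h, diploids were selected and their barcode pairs sequenced. The ratio of observed to expected reads was calibrated, replicate by replicate, on BCL2-family standards whose Kd was known from biolayer interferometry. There are three technical replicates.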

Variants are written as CDR1, CDR2 and CDR3 of the light chain (limits as in the source). Parent: EGDSLRYYYAN, GKNNRPS, SSRDSSGFQVF. This list gathers variants with a substitution at N33 (VL, numbered from residue 1). Values are log10 of the apparent Kd in nM; lower means stronger binding. Averages over replicates are reported, and they cover detected replicates only. "nd" marks a missing value. The strain was present, yet no cells mated with the target were sequenced in any replicate, which points to weak or no binding. The list is sorted by this average, lowest first, undetected variants last. As a blank, each scFv also met three strains without target: over library AAYL52, 28% of these pairings were detected, typically at 3.91 and seldom below 2.90. Also given: how often the same scFv was detected with the empty control strains.

* EGPSLRYYYAI, GKQNRPS, SSRDSSGFQVF: 2.72 (1 of 3 replicates; controls 0 of 9)
* ERDSLRYYYAY, GKNGRPS, SSRDSSGFQVF: 3.20 (3 of 3 replicates; controls 5 of 9)
* EGDSLRYYHAH, GKNNRPS, SSRDSSGFQVY: 3.23 (1 of 3 replicates; controls 0 of 9)
* EGDSLRYYYAM, GKNNRMS, SSRDSSGFQVF: 3.29 (3 of 3 replicates; controls 5 of 9)
* EGDSLRYYYLW, GKNNRPS, SSRDSSGFQVF: 3.30 (1 of 3 replicates; controls 1 of 9)
* EGDSLRYYYAP, GKNNGPS, SSRDSSIFQVF: 3.32 (1 of 3 replicates; controls 1 of 9)
* EGDSLRYRYAE, GKNNRPS, SSRDSSGFQVF: 3.37 (2 of 3 replicates; controls 2 of 9)
* EGDSLRYYYAA, GKNNNPS, SSRDSSGFGVF: 3.59 (2 of 3 replicates; controls 0 of 9)
* EGDSLRYYYAW, GKNNLPS, SSRDSSGQQVF: 3.80 (2 of 3 replicates; controls 3 of 9)
* EGDSLRYYEAK, GKNNRPS, SSRDSSGFQVF: 3.83 (3 of 3 replicates; controls 1 of 9)
* EGDSLRYYYAH, GANNRPS, SSGDSSGFQVF: 3.98 (1 of 3 replicates; controls 3 of 9)
* EGDSLRNYYAG, GKNNRPS, SSSDSSGFQVF: 3.99 (2 of 3 replicates; controls 2 of 9)
* EGDSPRYYYKS, GKNNRPS, SSRDSSGFQVF: 4.03 (3 of 3 replicates; controls 4 of 9)
* EGDSLRYYYAI, GKNNRPS, SSRDPSGFQVF: 4.04 (2 of 3 replicates; controls 1 of 9)
* EGDSLRYYYAW, GKNNRPE, SSRDSSGFQVF: 4.08 (1 of 3 replicates; controls 2 of 9)
* EGDSLRYYYAV, AKNNRPS, SSRTSSGFQVF: 4.12 (3 of 3 replicates; controls 3 of 9)
* EEDSLRYYYAH, GKNNRPS, SSRDMSGFQVF: 4.16 (2 of 3 replicates; controls 6 of 9)
* EGDSLRYYYAK, IKNNRPF, SSRDSSGFQVF: 4.37 (1 of 3 replicates; controls 1 of 9)
* EIDSLRYYYAD, GKNNRPS, SSRDSSGFQPF: 4.56 (2 of 3 replicates; controls 1 of 9)
* EGDSLRYYPAG, AKNNRPS, SSRDSSGFQVF: 4.57 (2 of 3 replicates; controls 3 of 9)
* EGDSLRYYYAK, GKNNRPS, SSRDSSGFQYI: 4.60 (2 of 3 replicates; controls 5 of 9)
* EGDSLRYYYAE, GKNNRPS, SYRDSDGFQVF: 4.78 (1 of 3 replicates; controls 1 of 9)
* EGDSHRYYYAR, GKNNRPS, SSRDSSGFQVF: 5.11 (1 of 3 replicates; controls 6 of 9)
* EGDSLRYYYAP, GKINRDS, SSRDSSGFQVF: 5.38 (1 of 3 replicates; controls 1 of 9)
* EFDSLRYYYAR, GKNDRPS, SSRDSSGFQVF: nd (0 of 3 replicates; controls 2 of 9)
* EGDSLRHYYAF, GKDNRPS, SSRDSSGFQVF: nd (0 of 3 replicates; controls 1 of 9)
* EGDSLRYYYAI, GKNNRPS, SSMDSSGFTVF: nd (0 of 3 replicates; controls 2 of 9)
* EGDSLRYYYAG, GKNNRPS, SSRESSGFIVF: nd (0 of 3 replicates; controls 2 of 9)
* EGDSLSYYYAK, GKNNRKS, SSRDSSGFQVF: nd (0 of 3 replicates; controls 0 of 9)
* EGDSLRYYYRP, GKGNRPS, SSRDSSGFQVF: nd (0 of 3 replicates; controls 1 of 9)
* EGDSKRYYYAI, GKNNRPS, SSRVSSGFQVF: nd (0 of 3 replicates; controls 0 of 9)
* EGDSMRYYYAT, GKNNRPS, SSRDSWGFQVF: nd (0 of 3 replicates; controls 5 of 9)
* EGDSYRYYYAI, GKNNRPS, SSRDSSGFQVF: nd (0 of 3 replicates; controls 2 of 9)
* EGDSLRYYYAE, GKNLRPS, SSHDSSGFQVF: nd (0 of 3 replicates; controls 2 of 9)
* EGDSLRYYYAF, GKNNLPS, SSRDCSGFQVF: nd (0 of 3 replicates; controls 0 of 9)

For reference, 4 entries of the list once more:

- EGDSLRYYEAK, GKNNRPS, SSRDSSGFQVF = 3.83 (3 of 3 replicates; controls 1 of 9)
- EGDSLRYYYAE, GKNNRPS, SYRDSDGFQVF = 4.78 (1 of 3 replicates; controls 1 of 9)
- EEDSLRYYYAH, GKNNRPS, SSRDMSGFQVF = 4.16 (2 of 3 replicates; controls 6 of 9)
- EGDSLRYYYAW, GKNNLPS, SSRDSSGQQVF = 3.80 (2 of 3 replicates; controls 3 of 9)